Screens: PubChem BioAssay, National Center for Advancing Translational Sciences (NCATS)
miR-21 reporter – miR-21 reporter, rising signal | HeLa miR-21 FLuc reporter, luciferase, 48 h | Potency, µM (doses to about 38.3 µM) | 340,000 tested, under 10 active | AID 2288; active = well fitted rising curve with a large enough effect; inconclusive = small, poorly fitted or top-dose-only effect; inactive = no such curve, though single readings can be large or run the other way;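 note: miR-21 action dims this reporter so a rising signal means less miR-21 action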
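HeLa miR-21-FLuc reporter line, endogenous miR-21; 2000 cells/well in DMEM/10% FBS; compound titration up to ~40uM final, 48 h, 37 degree Celsius; luciferase detection reagent, 15 min lysis, CCD luminescence.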
A549 viability – kills or reduces viability of A549 cells in Nrf2 counter-screen; AID 504648; actives 0.16% (n = 390,000); Potency, µM (doses to about 46 µM), hits mostly inhibitors; A549 ARE-Fluc cells, CellTiter-Fluor viability, 18-24 h
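A549 ARE_Fluc cells in 5% FBS OPTI-MEM were exposed to compounds in concentration-response for 18-24 h at 37 deg C. Viability was read by CellTiter-Fluor fluorescence (Ex 405/Em 525) after 30 min, before the luciferase read.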
ClpP mod – qHTS Assay for Activators of ClpP. purified B. subtilis ClpP, FRET peptide cleavage, 20 min. Potency, µM (series often up to 57.5 µM). actives 1.9% (n = 340,000). ATP-dependent Clp protease proteolytic subunit (Bacillus subtilis (strain 168)), P80244; active = well fitted falling curve with a large enough effect; inconclusive = small, poorly fitted or top-dose-only effect; inactive = no such curve, though single readings can be large or run the other way; also: the source files actives as falling curves though it sought activators and does not explain the sign; nearly all actives have a fitted effect of over 65% in size
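Buffer: 100 mM Tris/HCl pH8, 100 mM KCl, 0.05% low protease BSA, 2.5% glycerol, 0.01% Tween-20. ClpP 10 microg/mL final; 20 min RT; delta FRET normalized to ADEP and DMSO controls.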
Nrf2 inh – Nrf2 pathway inhibition. A549 ARE-Fluc reporter, luciferase luminescence, 18-24 h. Potency, µM (titrated, usually from 46 µM), actives largely listed as inhibitors. actives 2.1% (n = 360,000). AID 504444; also: nearly all actives have a fitted effect of over 60% in size
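Nrf2 activity is the BugLite luminescence, read 15 min after reagent at room temperature, following CellTiter-Fluor cytotoxicity readout (30 min, 37C). Compound titrations were applied for 18-24 h to 5000 A549 ARE_Fluc cells/well in 5% FBS OPTI-MEM.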
Nrf2 ARE act – activators of Nrf2 (ARE) signaling; AREc32 ARE-luciferase reporter (MCF7-derived line), luminescence, 24 h; Potency, µM (highest dose often 46.1 µM), hits mostly activators; actives 0.31% (n = 410,000); AID 624171; also: nearly all actives have a fitted effect of over 65% in size
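Steps: seed AREc32_Fluc cells (1000/well, 5% FBS OPTI-MEM); incubate overnight at 37 deg C; add 23 nL compound; incubate 24 hr; add Steady-Glo; hold 30 min RT; read luminescence.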
TCR activator – activates T cell receptor signaling; AID 504894; Potency, µM (highest dose often 9.22 µM), usual class: activators; 330,000 tested, under 10 active; primary human leukocytes, anti-CD3, IL-2 HTRF, 48 h
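48 hr co-incubation of compounds, a-CD3 beads and primary human leukocytes; IL-2 quantified homogeneously by HTRF with anti-IL-2 K and d2 conjugates.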
Numbers stand for hits; – = inactive; ? = inconclusive; · = no result; ! = a repeat was not active. The list is not random: actives were taken first. Their share in the collection is about 3.7%. Unless noted, calls follow the shape of the dose curve; as a rule, active = well fitted curve in the direction sought with a large enough effect; inconclusive = small, poorly fitted or top-dose-only effect, or another doubt; inactive = no such curve, though single readings can be large; an effect the other way counts as inactive or inconclusive.

Sequences of proteins named here, by UniProt entry; tags and fusion partners are left off.
ATP-dependent Clp protease proteolytic subunit (Bacillus subtilis (strain 168)), P80244, UniProt P80244, whole entry, looked up: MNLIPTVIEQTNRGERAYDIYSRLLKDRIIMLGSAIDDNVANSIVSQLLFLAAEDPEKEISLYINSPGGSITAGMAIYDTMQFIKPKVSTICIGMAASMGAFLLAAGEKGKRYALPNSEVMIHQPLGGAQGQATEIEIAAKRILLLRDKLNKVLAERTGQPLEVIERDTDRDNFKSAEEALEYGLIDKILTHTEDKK

SMILES	miR-21 reporter	A549 viability	ClpP mod	Nrf2 inh	Nrf2 ARE act	TCR activator
O=Cc1ccccc1-n1cccn1	–	–	·	–	–	–
Oc1cc(-n2cccn2)c(O)cc1-n1cccn1	–	–	28µM	–	?	–
O=C(CC1C(=O)NCCN1C(=O)Nc1ccc(Cl)cc1)Nc1ccc(F)cc1 (configuration not stated)	–	–	·	–	–	–
O=C(CC1C(=O)NCCN1C(=O)c1ccc(Cl)cc1)Nc1ccc(F)cc1 (configuration not stated)	–	–	32µM	–	–	–
CC(=O)OCC(=O)c1ccc2ccn(C(C)=O)c2c1	–	–	35µM	?	–	–
Cc1noc(-c2ccc(N3CCC(C)CC3)c([N+](=O)[O-])c2)n1	–	–	–	?	–	·
C#CC[N+]1(CC#Cc2ccccc2)CCCCC1	–	–	·	–	–	–
C(#Cc1ccccc1)C[N+]1(CC#Cc2ccccc2)CCCCC1	–	–	·	12µM	–	–
CCCCCn1c(=O)[nH]c2cc(C(=O)NCCN3CCCCC3C)ccc2c1=O (configuration not stated)	–	–	–	–	–	–
Cc1oc2cc(OCC(=O)O)ccc2c(=O)c1Oc1ccccc1	–	–	–	–	–	–
CCc1cc2c(=O)c(Oc3ccccc3)c(C)oc2cc1O	–	·	7.9µM	–	–	–
Cc1ccc(NC(=O)CCS(=O)(=O)c2cc3[nH]c(=O)c(=O)[nH]c3cc2C)cc1	–	–	–	–	–	–
CC1CN(C(=O)c2cc3c(=O)n4ccccc4nc3s2)CC(C)O1 (configuration not stated)	–	–	18µM	–	–	–
CC1CC(C)CN(C(=O)c2cc3c(=O)n4ccccc4nc3s2)C1 (configuration not stated)	–	–	·	–	–	–
O=C(O)CCc1ccc(-c2ccccc2)n1CC(=O)O	–	–	32µM	–	–	–
COc1ccc(-c2ccc(CCC(=O)O)n2CC(C)C)cc1	–	–	32µM	·	–	·
Cc1ccc(-c2ccc(CCC(=O)O)n2Cc2ccco2)cc1	–	–	32µM	–	–	–
C=CCn1c(CCC(=O)O)ccc1-c1ccc(OC)cc1	–	–	?	–	–	·
CCCCN(C(=O)CC1CCCCC1)c1c(N)n(CCCC)c(=O)[nH]c1=O	·	·	–	·	–	·
Cc1ccc([C@@H]2CC(=O)[C@@H]3CN(S(=O)(=O)c4ccc(C)cc4)[C@H](c4ccc(Cl)cc4)C[C@@H]3N2S(=O)(=O)c2ccc(Cl)cc2)cc1	·	·	–	·	–	·
COc1cc(C(=O)N2CCN(Cc3ccccc3C(F)(F)F)CC2)cc(OC)c1OC	–	–	–	–	–	–
COc1cccc(OC)c1C(=O)N1CCN(Cc2ccccc2C(F)(F)F)CC1	–	–	32µM	–	–	–
Brc1ccsc1-c1csc(-c2ccncc2)n1	–	–	–	–	13µM	–
COc1ccc(NC(=S)NCc2ccccc2)c(OC)c1	–	–	·	–	–	–
CSc1cccc(NC(=O)C2CCCN(c3ncnc4c3nc3n4CCCCC3)C2)c1 (configuration not stated)	–	–	–	18µM	–	–
SMILES	miR-21 reporter	A549 viability	ClpP mod	Nrf2 inh	Nrf2 ARE act	TCR activator
Clc1cccc(N2CCN(c3ncnc4c3nc3n4CCCCC3)CC2)c1	?	?	–	13µM	–	·
CCN(C(=O)C1CCCN(c2ncnc3c2nc2n3CCCCC2)C1)c1cccc(Cl)c1 (configuration not stated)	?	–	–	15µM!	–	–
C(=C\c1ccccc1)/CN1CCN(C(c2ccnc3ccccc23)c2nnnn2C2CCCC2)CC1 (configuration not stated)	·	·	–	·	–	·
CC(=O)N1CCN(c2ccc(NCc3ccc(F)cc3)cc2)CC1	–	–	–	?	–	–
CC(=O)N1CCN(c2ccc(NCc3cccc(C)c3)cc2)CC1	·	–	·	15µM	–	–
COc1cc(CNc2ccc(N3CCN(C(C)=O)CC3)cc2)ccc1OCc1ccc(F)cc1	–	–	·	16µM	–	–
CCOc1cc(CNc2ccc(N3CCN(C(C)=O)CC3)cc2)cc(Br)c1OC	–	–	–	?	–	–
O=C(CCc1ccccc1)NCCc1csc(-c2cccc(F)c2)n1	–	–	–	·	–	·
COc1ccccc1NS(=O)(=O)c1ccc2nc(CCl)[nH]c2c1	–	–	·	–	–	–
CCN(CC)S(=O)(=O)c1ccc2nc(CCl)[nH]c2c1	–	?	14µM	?	–	–
CCOc1ccc(Oc2ccccc2NS(=O)(=O)c2ccc(CCC(=O)O)cc2)cc1	·	–	–	10µM	–	–
CC(C)CNS(=O)(=O)c1ccc(CCC(=O)Nc2cc(Cl)ccc2Oc2ccccc2)cc1	–	–	–	·	–	–
CCCNS(=O)(=O)c1ccc(CCC(=O)Nc2cc(Cl)ccc2Oc2ccccc2)cc1	?	?	–	16µM	–	–
Cc1ccc2cccc(NC(=O)COc3ccccc3Cl)c2n1	–	–	?	?	–	·
Cc1nc2ccc(S(=O)(=O)NCC(=O)Nc3ccc(F)cc3F)cc2s1	–	–	–	?	–	·
CC(C)NC(=O)c1cnc2sc(N3CCCCCC3)nn2c1=O	–	–	16µM	–	–	·
CC(C)c1ccc(NC(=O)c2cnc3sc(N4CCCC4)nn3c2=O)cc1	–	–	–	2.3µM	–	·
CCCNC(=O)c1cnc2sc(N3CCCCC3)nn2c1=O	–	–	–	?	–	·
O=C(NC12CC3CC(CC(C3)C1)C2)c1ccccc1O	–	–	28µM	–	–	–
O=C(NNC(=O)C12CC3CC(CC(C3)C1)C2)c1ccccc1O	·	–	?	?	–	–
O=C(CCN=C1NS(=O)(=O)c2ccccc21)Nc1ccc(F)cc1Cl	·	–	–	9.2µM	–	·
O=C(CCN=C1NS(=O)(=O)c2ccccc21)NCc1ccccc1F	·	–	–	–	–	–
O=C(c1cccc(C(=O)N(c2ccccn2)C2CCCCC2)c1)N(c1ccccn1)C1CCCCC1	–	–	·	16µM	–	–
O=C(c1ccc(Cl)cc1)N(c1ccccn1)C1CCCCC1	–	–	–	–	–	–
COc1cc2nc(N(CCCN(C)C)C(=O)c3ccc(C(=O)c4ccccc4)cc3)sc2cc1OC	·	–	–	–	–	–
CCc1ccc2nc(N(CCCN(C)C)C(=O)c3ccc(C(=O)c4ccccc4)cc3)sc2c1	–	?	–	13µM	–	–
Cc1ccc(-n2nc(C)c3nc(CCC(=O)Nc4cccc(C)c4C)c(=O)n(C)c32)cc1	–	–	–	·	–	·
O=S(=O)(NCCNCC=Cc1ccc(Br)cc1)c1cccc2cnccc12	·	·	–	·	·	·
CCn1nnc(NC(=O)c2ccc(-c3ccc(Cl)cc3)o2)n1	–	–	11µM	?	–	–
